The target of assay [1] is Acetylcholinesterase (Homo sapiens, UniProt P22303). As to the kind of experiment: Anticholinesterase activity against erythrocyte acetylcholinesterase (AChE) in humans.
The target in assay [2] is Cholinesterase (Homo sapiens, UniProt P06276). Kind of assay: Anticholinesterase activity against plasma Butyrylcholinesterase (BChE) in humans. It counts as cell-free.

By UniProt entry, the sequences of proteins in these tests, tags left out. Where a name states a change or a piece, a line headed by the entry shows the natural chain unless it says otherwise.
UniProt P22303: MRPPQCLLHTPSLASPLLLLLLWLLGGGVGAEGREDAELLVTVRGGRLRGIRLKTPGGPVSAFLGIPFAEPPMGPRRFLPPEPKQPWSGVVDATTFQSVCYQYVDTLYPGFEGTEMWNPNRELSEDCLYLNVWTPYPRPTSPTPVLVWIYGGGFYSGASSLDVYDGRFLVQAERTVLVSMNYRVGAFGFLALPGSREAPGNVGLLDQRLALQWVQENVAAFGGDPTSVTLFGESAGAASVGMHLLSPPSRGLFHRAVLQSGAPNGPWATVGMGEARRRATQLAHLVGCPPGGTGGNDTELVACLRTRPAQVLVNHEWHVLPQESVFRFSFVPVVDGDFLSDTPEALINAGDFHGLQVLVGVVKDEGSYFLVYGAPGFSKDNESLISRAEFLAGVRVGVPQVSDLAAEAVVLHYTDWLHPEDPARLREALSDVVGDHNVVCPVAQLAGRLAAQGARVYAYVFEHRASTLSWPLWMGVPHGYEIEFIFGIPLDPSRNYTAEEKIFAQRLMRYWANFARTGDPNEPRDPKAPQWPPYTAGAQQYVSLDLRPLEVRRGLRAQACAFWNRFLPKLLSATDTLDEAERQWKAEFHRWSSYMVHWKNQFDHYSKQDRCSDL
UniProt P06276, whole entry: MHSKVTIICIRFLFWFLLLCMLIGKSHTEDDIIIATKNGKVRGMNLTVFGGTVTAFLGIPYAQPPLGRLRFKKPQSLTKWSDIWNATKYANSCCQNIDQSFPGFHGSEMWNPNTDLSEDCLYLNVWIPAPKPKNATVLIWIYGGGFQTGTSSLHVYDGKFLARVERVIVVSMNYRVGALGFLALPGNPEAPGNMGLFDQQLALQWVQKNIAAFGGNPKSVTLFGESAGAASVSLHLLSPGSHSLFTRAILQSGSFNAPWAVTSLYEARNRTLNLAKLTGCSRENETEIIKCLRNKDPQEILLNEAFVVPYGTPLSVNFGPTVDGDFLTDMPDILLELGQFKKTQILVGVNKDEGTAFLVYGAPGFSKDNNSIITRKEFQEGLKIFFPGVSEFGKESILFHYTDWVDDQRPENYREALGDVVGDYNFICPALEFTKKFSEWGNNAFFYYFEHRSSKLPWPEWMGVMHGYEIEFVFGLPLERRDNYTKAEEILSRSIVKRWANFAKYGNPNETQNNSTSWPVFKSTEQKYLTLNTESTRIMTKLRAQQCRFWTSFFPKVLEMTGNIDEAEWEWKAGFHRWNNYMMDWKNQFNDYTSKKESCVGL

By IC50 is commonly meant the point on the concentration scale where inhibition reaches its midpoint. A higher IC50 goes with weaker potency in that assay. On to `C[C@@]12CCNC1Nc1ccc(OC(=O)Nc3ccccc3)cc12` (some centres not stated), for which the concentration for half-maximal inhibition (IC50) in assay [1] amounted to 22.1 nM.

On to `CNC(=O)Oc1ccc2c(c1)[C@]1(C)CCNC1N2C` (some centres not stated), for which the half-maximal inhibitory concentration (IC50) in assay [2] came to 2 nM.
